Experimental data taken from patent US9725445B2, “Cycloalkyl nitrile pyrazolo pyridones as Janus kinase inhibitors” (Merck Sharp & Dohme Corp., priority 2013, dated 2017).

Sequences of proteins named here, by UniProt entry; tags and fusion partners are left off. Residues count along the entry.
UniProt P23458, 875-1153: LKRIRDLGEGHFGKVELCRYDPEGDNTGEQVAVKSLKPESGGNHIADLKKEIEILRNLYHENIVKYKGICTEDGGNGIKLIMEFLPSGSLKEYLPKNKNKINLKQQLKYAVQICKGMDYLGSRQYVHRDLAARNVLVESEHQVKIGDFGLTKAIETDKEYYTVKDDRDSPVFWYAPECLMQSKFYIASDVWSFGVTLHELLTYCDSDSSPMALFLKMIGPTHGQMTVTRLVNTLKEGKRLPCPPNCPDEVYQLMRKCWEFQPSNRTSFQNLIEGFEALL
UniProt O60674, 849-1124: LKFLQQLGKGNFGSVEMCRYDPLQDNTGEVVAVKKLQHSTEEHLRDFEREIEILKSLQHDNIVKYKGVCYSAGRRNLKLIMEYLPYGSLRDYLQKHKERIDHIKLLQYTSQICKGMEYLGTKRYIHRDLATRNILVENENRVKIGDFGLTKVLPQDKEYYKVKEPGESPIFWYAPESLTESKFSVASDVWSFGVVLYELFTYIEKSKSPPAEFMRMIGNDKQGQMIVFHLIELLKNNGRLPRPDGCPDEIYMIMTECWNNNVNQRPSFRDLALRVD

target: JAK1 (Homo sapiens (Human), UniProt P23458); assay: Jak biochemical HTRF assay, JAK1; conditions: recombinant GST-tagged catalytic domain
Procedure: (§1) Jak Biochemical HTRF Assay Protocol
(§2) The ability of compounds to inhibit the activity of JAK1, JAK2, JAK3, and Tyk2 was measured using a recombinant purified GST-tagged catalytic domain for each enzyme (Invitrogen JAK1 #M4290, JAK2 #M4290, JAK3 #M4290, Tyk2 #M4290) in an HTRF format biochemical assay. […] The basic assay protocol is as follows: First, 250 nL of diluted compounds in DMSO were dispensed into the wells of a dry 384-well Black plate (Greiner #781076) using a Labcyte Echo 555 acoustic dispenser. Subsequent reagent additions employed an Agilent Bravo. […] After equilibration, 2 μL of 10×ATP in 1× assay buffer was added to initiate the kinase reaction and the plates were shaken and then incubated at room temperature for 120 minutes. […] Plates were shaken and centrifuged and then incubated 60 minutes at room temperature and then read on a Perkin Elmer Envision (λex=337 nm, λem=665 and 615 nm, TRF delay time=20 μs). HTRF signal=10,000*665 nm reading/615 nm reading. After normalization to untreated controls, the percent inhibition of the HTRF signal at each compound concentration was calculated. The plot of percent inhibition versus the log of compound concentration was fit with a 4-parameter dose response equation to calculate IC50 values.
(§3) Final Reaction Conditions were:
(§4) Examples of the instant invention were evaluated in JAK1 and JAK2 in vitro binding assays.

Row | SMILES | IC50 [nM]
1 | N#C[C@H]1CCCC[C@@H]1n1nc(Nc2ccc(C(O)C(F)F)cc2)c2c(=O)[nH]ccc21 (mixture of isomers) [Example 10-1, Racemic-(1S,2S)-2-(3-((4-(2,2-difluoro-1-hydroxyethyl)phenyl)amino)-4-oxo-4,5-dihydro-1H-pyrazolo[4,3-c]pyridin-1-yl)cyclohexanecarbonitrile] | 0.14
2 | CC(C)S(=N)(=O)c1ccc(Nc2nn(C3CCC[C@@H]3C#N)c3cc[nH]c(=O)c23)cc1 (single isomer, unassigned) [Example 3-108, (1S,2S)-2-[3-({4-[(S or R)-S-(1-methylethyl)sulfonimidoyl]phenyl}amino)-4-oxo-4,5-dihydro-yl]cyclopentanecarbonitrile] | 0.4
3 | CC(C)S(=N)(=O)c1ccc(Nc2nn(C3CCC[C@@H]3C#N)c3cc[nH]c(=O)c23)cc1 (single isomer, unassigned) [Example 3-109, (1S,2S)-2-[3-({4-[(S or R)-S-(1-methylethyl)sulfonimidoyl]phenyl}amino)-4-oxo-4,5-dihydro-1H-pyrazolo[4,3-c]pyridin-1-yl]cyclopentanecarbonitrile] | 0.22
4 | CC(C)NC(c1ccc(Nc2nn([C@H]3CCC[C@@H]3C#N)c3cc[nH]c(=O)c23)cc1)C(F)(F)F (single isomer, unassigned) [Example 3-115, (1S,2S)-2-{4-oxo-3-[(4-{(1R or 1S)-2,2,2-trifluoro-1-[(1-methylethyl)amino]ethyl}phenyl)amino]-4,5-dihydro-1H-pyrazolo[4,3-c]pyridin-1-yl}cyclopentanecarbonitrile] | 0.22
5 | CC(C)NC(c1ccc(Nc2nn([C@H]3CCC[C@@H]3C#N)c3cc[nH]c(=O)c23)cc1)C(F)(F)F (single isomer, unassigned) [Example 3-116, (1S,2S)-2-{4-oxo-3-[(4-{(1S or 1R)-2,2,2-trifluoro-1-[(1-methylethyl)amino]ethyl}phenyl)amino]-4,5-dihydro-1H-pyrazolo[4,3-c]pyridin-1-yl}cyclopentanecarbonitrile] | 0.18
6 | CC(O)(c1ccc(Nc2nn([C@H]3CCC[C@@H]3C#N)c3cc[nH]c(=O)c23)cc1)C(F)(F)F (single isomer, unassigned) [Example 3-138, (1S,2S)-2-[4-oxo-3-({4-[(1R or 1S)-2,2,2-trifluoro-1-hydroxy-1-methylethyl]phenyl}amino)-4,5-dihydro-1H-pyrazolo[4,3-c]pyridin-1-yl]cyclopentanecarbonitrile] | 0.17

target: JAK2 (Homo sapiens (Human), UniProt O60674); assay: Jak biochemical HTRF assay, JAK2; conditions: recombinant GST-tagged catalytic domain
Procedure: as §1, §2, §3, §4

Row | SMILES | IC50 [nM]
7 | N#C[C@H]1CCC[C@@H]1n1nc(Nc2ccc(C3(C(F)(F)F)CCCCN3)cc2)c2c(=O)[nH]ccc21 (single isomer, unassigned) [Example 15-72, (1S,2S)-2-[4-oxo-3-({4-[(2R or 2S)-2-(trifluoromethyl)piperidin-2-yl]phenyl}amino)-4,5-dihydro-1H-pyrazolo[4,3-c]pyridin-1-yl]cyclopentanecarbonitrile] | 0.09
8 | Cc1cc(Nc2nn([C@@H]3CC(F)(F)C[C@@H]3C#N)c3cc[nH]c(=O)c23)ccc1C(=O)N1CCCC1 (single isomer, unassigned) [Example 22-5, (1S,2R or 1R,2S)-4,4-difluoro-2-(3-{[3-methyl-4-(pyrrolidin-1-ylcarbonyl)phenyl]amino}-4-oxo-4,5-dihydro-1H-pyrazolo[4,3-c]pyridin-1-yl)cyclopentanecarbonitrile] | 3.3
9 | CC(C)S(=O)(=O)c1ccc(Nc2nn([C@H]3CCCC[C@@H]3C#N)c3cc[nH]c(=O)c23)cc1 [Example 3-141, (1S,2S)-2-[3-({4-[(1-methylethyl)sulfonyl]phenyl}amino)-4-oxo-4,5-dihydro-1H-pyrazolo[4,3-c]pyridin-1-yl]cyclohexanecarbonitrile] | 0.69
10 | N#C[C@H]1CCCC[C@@H]1n1nc(Nc2ccc([C@]3(O)CC[C@H](C(=O)O)CC3)cc2)c2c(=O)[nH]ccc21 [Example 17-2] | 2.7
